# Measured values: publication PMC9291665, “Discovery and SAR analysis of 5-chloro-4-((substituted phenyl)amino)pyrimidine bearing histone deacetylase inhibitors” (Journal of Enzyme Inhibition and Medicinal Chemistry, 2022)
# System: K562 cells
# Assay: Cell cycle analysis by flow cytometry (PI)
# Settings: 24 h, first peak in Figure 5
compound,measurement,setting,value
"O=C(CCCCCCC(=O)Nc1ccccc1)NO [SAHA, Vorinostat, reference compound]",G0/G1 phase ratio of K562 cells,1 µM,44.45%
same,G0/G1 phase ratio of K562 cells,2 µM,60.63%
